Reference: ChEMBL document CHEMBL1125884, “Synthesis and biochemical studies of 16- or 19-substituted androst-4-enes as aromatase inhibitors” (J Med Chem, 1991)

Sequences of proteins named here, by UniProt entry; tags and fusion partners are left off. A change or cut given only in a name is not applied to a line headed by its entry.
UniProt P11511: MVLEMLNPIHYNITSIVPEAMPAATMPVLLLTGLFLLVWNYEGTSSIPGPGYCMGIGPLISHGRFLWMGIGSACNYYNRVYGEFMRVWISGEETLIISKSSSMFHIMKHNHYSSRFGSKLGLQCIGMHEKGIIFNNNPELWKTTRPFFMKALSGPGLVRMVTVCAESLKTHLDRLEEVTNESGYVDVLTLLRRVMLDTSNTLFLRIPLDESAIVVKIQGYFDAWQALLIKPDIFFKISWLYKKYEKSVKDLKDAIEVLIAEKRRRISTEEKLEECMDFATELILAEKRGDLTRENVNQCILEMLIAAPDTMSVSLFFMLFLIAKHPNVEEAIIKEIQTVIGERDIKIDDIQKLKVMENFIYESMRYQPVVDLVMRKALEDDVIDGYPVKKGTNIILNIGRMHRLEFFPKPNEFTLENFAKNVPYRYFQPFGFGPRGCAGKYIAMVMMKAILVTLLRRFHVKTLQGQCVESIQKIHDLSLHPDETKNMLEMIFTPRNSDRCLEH

Target: Aromatase (Homo sapiens, UniProt P11511)

C[C@]12CCCC=C1CC[C@@H]1[C@@H]2CC[C@]2(C)C(=O)CC[C@@H]12
IC50: 530 nM
